The chains behind the UniProt entries cited, without tags or fusion partners.
UniProt P32300, whole entry: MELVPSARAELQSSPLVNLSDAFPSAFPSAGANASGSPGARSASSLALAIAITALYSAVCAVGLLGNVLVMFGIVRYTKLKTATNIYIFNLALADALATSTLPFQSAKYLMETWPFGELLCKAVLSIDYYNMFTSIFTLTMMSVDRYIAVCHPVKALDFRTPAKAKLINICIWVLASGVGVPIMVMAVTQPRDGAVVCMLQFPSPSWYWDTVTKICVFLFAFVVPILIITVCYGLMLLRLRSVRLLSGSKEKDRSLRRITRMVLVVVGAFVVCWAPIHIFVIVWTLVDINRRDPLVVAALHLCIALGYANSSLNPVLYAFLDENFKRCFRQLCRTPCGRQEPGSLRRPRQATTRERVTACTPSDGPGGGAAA
UniProt P97266, whole entry: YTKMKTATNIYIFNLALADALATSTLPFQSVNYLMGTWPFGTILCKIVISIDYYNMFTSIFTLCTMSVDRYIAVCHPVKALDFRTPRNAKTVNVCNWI

According to ChEMBL document CHEMBL1136566, “Synthesis, opioid receptor binding, and functional activity of 5'-substituted 17-cyclopropylmethylpyrido[2',3':6,7]morphinans” (Bioorg Med Chem Lett, 2003):

Assays:
[1] = target: Delta-type opioid receptor (Mus musculus) (UniProt P32300); experiment: Antagonist potency against delta opioid receptor was measured in mouse vas-deferens using DPDPE; format: functional
[2] = target: Mu-type opioid receptor (Cavia porcellus) (UniProt P97266); experiment: Antagonist potency against mu opioid receptor was measured in guinea-pig ileal longitudinal muscle using PL-017; format: functional

## CCOC(=O)c1cnc2c(c1)C[C@@]1(O)[C@H]3Cc4ccc(O)c5c4[C@@]1(CCN3CC1CC1)[C@H]2O5
[1]
  Ke: 20 nM
[2]
  Ke: 87 nM
